{"source": "paper PMC8705538", "about": "“Discovery of SARS-CoV-2 Nsp14 and Nsp16 Methyltransferase Inhibitors by High-Throughput Virtual Screening” (Pharmaceuticals, 2021)", "key": {"[1]": {"molecular_target": "SARS-CoV-2 nsp16/nsp10 (Severe acute respiratory syndrome coronavirus 2, UniProt P0DTD1)", "assay_type": "biochemical"}, "[2]": {"molecular_target": "SARS-CoV-2 nsp14 (Severe acute respiratory syndrome coronavirus 2, UniProt P0DTD1)", "assay_type": "biochemical"}}}
{"compound": "CNCCCN(CC[C@H](N)C(=O)O)C[C@H]1O[C@@H](n2cnc3c(N)ncnc32)[C@H](O)[C@@H]1O", "note": "[ZINC000584905214]", "values": [{"measurement": "Percent inhibition at 100 μM, nsp16", "setting": "[1]", "result": "1 ±5", "unit": "%"}, {"measurement": "Percent inhibition at 100 μM, nsp14", "setting": "[2]", "result": "22 ±5", "unit": "%"}]}
